Assay outcomes: PubChem BioAssay, National Center for Advancing Translational Sciences (NCATS)
DT40 TDP1 no CPT: qHTS for Inhibitors of human tyrosyl-DNA phosphodiesterase 1 (TDP1): qHTS in cells in absence of CPT; Potency, µM (highest dose often 46.2 µM), for inactives: top-dose activity change, negative = growth inhibition, hits mostly inhibitors; DT40 Tdp1-/- hTDP1 cells, no CPT, ATP luminescence, 48 h; actives 15% (n = 420,000); AID 686978, 2013; further: potency means the concentration at half of the fitted maximal effect; on the % scale 0 is the no-effect control and ±100 the full control effect; nearly all actives have a fitted effect of over 55% in size
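Readout: luminescence from CellTiter-Glo after 30 min in the dark at RT. Cells: DT40 Tdp1-/- with stable hTDP1, 400/well. Exposure: compounds alone, ≥48 hr, 37 °C.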
uPA generation: inhibitors of cell surface uPA generation; Potency, µM (series often up to 38.3 µM), without a hit: top-dose activity change, negative = inhibition, usual class: inhibitors; AID 540303; actives 0.31% (n = 330,000); cell surface uPA generation assay, qHTS; active means well fitted inhibition curve with a large enough effect; inconclusive means small, poorly fitted or top-dose-only effect; inactive means no such curve, though single readings can be large or run the other way; tested in mouse RAW 264.7 cells; further: potency means the concentration at half of the fitted maximal effect; on the % scale 0 is the no-effect control and ±100 the full control effect; nearly all actives have a fitted effect of over 55% in size
TDP1 block: blocks human tyrosyl-DNA phosphodiesterase 1. Q9NUW8. recombinant TDP1, AlphaScreen DNA substrate cleavage. Potency, µM (series often up to 130 µM), for inactives: at the highest dose activity change, negative = inhibition, most hits filed as inhibitors. actives 0.28% (n = 350,000); further: potency means the concentration at half of the fitted maximal effect; on the % scale 0 is the no-effect control and ±100 the full control effect; nearly all actives have a fitted effect of over 40% in size
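AlphaScreen read-out: signal falls as enzyme removes the 3' tyrosine-FITC from a 5'-biotinylated DNA oligo (15 nM, 5 min, RT). Enzyme was E. coli-made recombinant Tdp1 at 1 nM, exposed to compound for 15 min beforehand; beads 10 ug/ml, 10 min.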
DT40 TDP1 CPT: growth inhibition of DT40 Tdp1-/-;hTDP1 cells with camptothecin (screen for TDP1 inhibitors); chicken DT40 Tdp1-/-;hTDP1 cells + 20 nM CPT, ATP luminescence, 48 h; Potency, µM (titrated, usually from 46.2 µM), for the others: at the highest dose activity change, negative = growth inhibition, most hits filed as inhibitors; actives 12% (n = 420,000); AID 686979; further: potency means the concentration at half of the fitted maximal effect; on the % scale 0 is the no-effect control and ±100 the full control effect; nearly all actives have a fitted effect of over 55% in size
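Cell growth measured by CellTiter-Glo luminescence after a minimum 48 h, 37 C compound exposure with 20 nM CPT in Tdp1-knockout DT40 cells stably expressing hTDP1, seeded 400/well; qHTS titration format.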
miR-21 reporter: miR-21 reporter, rising signal | HeLa miR-21 FLuc reporter, luciferase, 48 h | Potency, µM (doses to about 38.3 µM), inactives show at the top dose reporter change, positive = more light | 340,000 tested, under 10 active | AID 2288; active = well fitted rising curve with a large enough effect; inconclusive = small, poorly fitted or top-dose-only effect; inactive = no such curve, though single readings can be large or run the other way;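 note: % of control where 0% means no effect; miR-21 action dims this reporter so a rising signal means less miR-21 action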
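Using DMEM plus 10% FBS, HeLa miR-21-FLuc cells are incubated with test compounds (final up to about 40uM) for 48 hours; firefly luciferase signal is then imaged following reagent-mediated lysis.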
The depositor's hits bear a star; ? = inconclusive; · = not tested or not shown; [ ] = dose if it differs, or a comment. Most compounds without a hit are left out; they make up all but 16% or so of the library. Unless noted, the call rests on the fitted dose curve; in most records, active means well fitted curve in the direction sought with a large enough effect; inconclusive means small, poorly fitted or top-dose-only effect, or another doubt; inactive means no such curve, though single readings can be large; an effect the other way counts as inactive or inconclusive.

cpd	SMILES	DT40 TDP1 CPT	DT40 TDP1 no CPT	TDP1 block
1	O=C(CN1C(=O)C2CCCCC2C1=O)N1CCN(c2ncccn2)CC1 (stereo not drawn)	7%	-12%	4%
2	COc1ccc(S(=O)(=O)N(C)CC(=O)NC2CCCCC2)cc1OC	-10%	7%	0%
3	COc1ccc(Cl)cc1N1C(=O)/C(=C\c2sccc2C)N=C1SCC(=O)NC1CC1	16µM*	16µM*	8%
4	O=C1C(c2ccc(F)cc2)N(CCc2ccccc2)C(=O)CN1C1CCCCC1 (stereo not drawn)	?	?	0%
5	O=C1C(c2ccc(F)cc2)N(Cc2ccc3c(c2)OCO3)C(=O)CN1C1CCCCC1 (stereo not drawn)	?	-24%	0%
6	Cc1ccc(CN2C(=O)CN(C3CCCCCC3)C(=O)C2c2ccc(F)cc2)cc1 (stereo not drawn)	18µM*	16µM*	5%
7	CCCOc1ccc(C2C(=O)N(C3CCCCCC3)CC(=O)N2Cc2ccc(OC)cc2)cc1OC (stereo not drawn)	?	23µM*	5%
8	COc1ccc(C2C(=O)N(C3CCCCCC3)CC(=O)N2Cc2ccc(C)cc2)cc1OC (stereo not drawn)	23µM*	23µM*	5%
9	O=C1C(c2ccc(F)cc2)N(CCc2ccccc2)C(=O)CN1C1CCCCCC1 (stereo not drawn)	?	13µM*	5%
10	Cc1cnc(-n2ncc(C(=O)NCCCc3ccncc3)c2C)nc1-c1ccc(F)cc1	10%[9.04 µM]	-13%	·
11	C/C(=N\OCC(=O)Nn1c(=O)[nH]c2ccccc2c1=O)c1cccs1	-5%	-8%	-1%
12	FC(F)(F)c1ccccc1-c1cc(NCc2cccnc2)ncn1	9%	24%	·
13	Cc1ccc(C2C(=O)N(C3CCCC3)CC(=O)N2C2CCCCC2)cc1 (stereo not drawn)	-25%	?	0%
14	CCCN1C(=O)CN(C2CCCCC2)C(=O)C1c1ccc(OC)c(OC)c1 (stereo not drawn)	-19%	-15%	10%
15	CCCOc1ccc(C2C(=O)N(C3CCCCCC3)CC(=O)N2CCC)cc1OC (stereo not drawn)	23µM*	?	8%

cpd	uPA generation	miR-21 reporter
1	1%	-8%
2	8%	-10%
3	·	11%
4	·	-13%
5	·	-6%
6	·	-7%
7	·	-1%
8	·	-4%
9	·	-3%
10	·	·
11	-10%	0%
12	·	·
13	-2%	0%
14	·	-8%
15	·	-11%

Reformatted: entries from further up.
6	Cc1ccc(CN2C(=O)CN(C3CCCCCC3)C(=O)C2c2ccc(F)cc2)cc1 (stereo not drawn)
  DT40 TDP1 CPT = 18µM*	DT40 TDP1 no CPT = 16µM*	TDP1 block = 5%	uPA generation = ·	miR-21 reporter = -7%

7	CCCOc1ccc(C2C(=O)N(C3CCCCCC3)CC(=O)N2Cc2ccc(OC)cc2)cc1OC (stereo not drawn)
  DT40 TDP1 CPT = ?	DT40 TDP1 no CPT = 23µM*	TDP1 block = 5%	uPA generation = ·	miR-21 reporter = -1%

Later entries.
cpd	SMILES	DT40 TDP1 CPT	DT40 TDP1 no CPT	TDP1 block
16	Cc1ccc(C2C(=O)N(C3CCCCCC3)CC(=O)N2C(C)C)cc1 (stereo not drawn)	?	26µM*	3%
17	CCOCCCN1C(=O)CN(C2CCCCCC2)C(=O)C1c1ccc(OC)cc1 (stereo not drawn)	7.9µM*	?	2%
18	CC1C(=O)OC2C1CCC1(C)CCC(=O)C(C)C21 (stereo not drawn)	-29%	?	·
19	COc1cccc(/C=N/Nc2nc(Nc3ccccc3)nc(-n3nc(C)cc3C)n2)c1O	0.82µM*	0.58µM*	13%
20	COc1cccc(/C=N/Nc2cc(-n3nc(C)cc3-c3ccccc3)ncn2)c1O	0.82µM*	0.65µM*	-2%
21	COc1cccc(/C=N/n2c(C)nc3ccccc3c2=O)c1O	-6%	-15%	1%
22	Cc1cc(C)nc(Sc2nc(Nc3ccccc3)nc(Sc3nc(C)cc(C)n3)n2)n1	-25%	29µM*	0%
23	CCN(CC)c1nc2ccccc2nc1-n1nc(C)cc1C	?	-25%	2%
24	Cc1cc(C)n(-c2nc(N(c3ccccc3)c3ccccc3)nc(-n3nc(C)cc3C)n2)n1	18µM*	13µM*	5%
25	Cc1cc(C)nc(Nc2ccc(O)cc2)n1	-19%	21%	·
26	Cc1c(N)c(=O)n(-c2ccccc2)n1C	5%	-8%	9%[56.1 µM]
27	Cc1cc(C)n(-c2nncc(-c3ccccc3)n2)n1	3%	-6%	-9%

cpd	uPA generation	miR-21 reporter
16	·	1%
17	·	-20%
18	0%	1%
19	1%	28%
20	-7%	13%
21	1%	-2%
22	-8%	-7%
23	·	-2%
24	·	-4%
25	-1%	-9%
26	7%	·
27	-6%	-49%

A few values from above:
In DT40 TDP1 CPT, `Cc1cc(C)n(-c2nncc(-c3ccccc3)n2)n1` is listed with 3%
In DT40 TDP1 no CPT, `CCN(CC)c1nc2ccccc2nc1-n1nc(C)cc1C` is listed with -25%
